Like-named read-outs stand apart in the source and are kept apart here.
How the values were obtained:
[1] = target: EGFR D19TMCS (del19/T790M/C797S) (Homo sapiens, UniProt P00533, C797S/DEL746-750/T790M); test: Biochemical EGFR kinase assay (Lance Ultra TR-FRET), triple mutant del19/T790M/C797S
EGFR WT = EGFR WT (Homo sapiens, UniProt P00533); test: Biochemical EGFR kinase assay (Lance Ultra TR-FRET), wildtype
EGFR LRCS (L858R/C797S) = EGFR LRCS (L858R/C797S) (Homo sapiens, UniProt P00533, C797S/L858R); test: Biochemical EGFR kinase assay (Lance Ultra TR-FRET), double mutant L858R/C797S
EGFR D19CS (del19/C797S) = EGFR D19CS (del19/C797S) (Homo sapiens, UniProt P00533, C797S/DEL746-750); test: Biochemical EGFR kinase assay (Lance Ultra TR-FRET), double mutant del19/C797S
[2] = target: EGFR LRTMCS (L858R/T790M/C797S) (Homo sapiens, UniProt P00533, C797S/L858R/T790M); test: Biochemical EGFR kinase assay (Lance Ultra TR-FRET), triple mutant L858R/T790M/C797S
[3] = read-out: IC50, EGFR D19TMCS, Km, ATP at Km, EGFR del19/T790M/C797S
[4] = read-out: IC50, EGFR WT, 1 mM, ATP 1 mM, EGFR wildtype
[5] = read-out: IC50, EGFR WT, Km, ATP at Km, EGFR wildtype
[6] = read-out: IC50, EGFR-LRCS, 1 mM, ATP 1 mM, EGFR L858R/C797S
[7] = read-out: IC50, EGFR-LRCS, Km, ATP at Km, EGFR L858R/C797S
[8] = read-out: IC50, EGFR-D19CS, 1 mM, ATP 1 mM, EGFR del19/C797S
[9] = read-out: IC50, EGFR-D19CS, Km, ATP at Km, EGFR del19/C797S
[10] = read-out: IC50, EGFR LRTMCS, 1 mM, ATP 1 mM, EGFR L858R/T790M/C797S
[11] = read-out: IC50, EGFR LRTMCS, Km, ATP at Km, EGFR L858R/T790M/C797S
[12] = read-out: EGFR D19TMCS IC50, ATP 1 mM
[13] = read-out: EGFR D19TMCS IC50, ATP Km
[14] = read-out: EGFR WT IC50, ATP 1 mM
[15] = read-out: EGFR LRCS IC50, ATP 1 mM
[16] = read-out: EGFR LRCS IC50, ATP Km
[17] = read-out: EGFR D19CS IC50, ATP 1 mM
[18] = read-out: EGFR D19CS IC50, ATP Km
[19] = read-out: EGFR LRTMCS IC50, ATP 1 mM
[20] = read-out: EGFR LRTMCS IC50, ATP Km

By UniProt entry, the sequences of proteins in these tests, tags left out. Where a name states a change or a piece, a line headed by the entry shows the natural chain unless it says otherwise. Chains listed by the source or under a name are the forms on record and can include a tag or linker. Residues count along the entry.
UniProt P00533, 25-1210 limits assumed: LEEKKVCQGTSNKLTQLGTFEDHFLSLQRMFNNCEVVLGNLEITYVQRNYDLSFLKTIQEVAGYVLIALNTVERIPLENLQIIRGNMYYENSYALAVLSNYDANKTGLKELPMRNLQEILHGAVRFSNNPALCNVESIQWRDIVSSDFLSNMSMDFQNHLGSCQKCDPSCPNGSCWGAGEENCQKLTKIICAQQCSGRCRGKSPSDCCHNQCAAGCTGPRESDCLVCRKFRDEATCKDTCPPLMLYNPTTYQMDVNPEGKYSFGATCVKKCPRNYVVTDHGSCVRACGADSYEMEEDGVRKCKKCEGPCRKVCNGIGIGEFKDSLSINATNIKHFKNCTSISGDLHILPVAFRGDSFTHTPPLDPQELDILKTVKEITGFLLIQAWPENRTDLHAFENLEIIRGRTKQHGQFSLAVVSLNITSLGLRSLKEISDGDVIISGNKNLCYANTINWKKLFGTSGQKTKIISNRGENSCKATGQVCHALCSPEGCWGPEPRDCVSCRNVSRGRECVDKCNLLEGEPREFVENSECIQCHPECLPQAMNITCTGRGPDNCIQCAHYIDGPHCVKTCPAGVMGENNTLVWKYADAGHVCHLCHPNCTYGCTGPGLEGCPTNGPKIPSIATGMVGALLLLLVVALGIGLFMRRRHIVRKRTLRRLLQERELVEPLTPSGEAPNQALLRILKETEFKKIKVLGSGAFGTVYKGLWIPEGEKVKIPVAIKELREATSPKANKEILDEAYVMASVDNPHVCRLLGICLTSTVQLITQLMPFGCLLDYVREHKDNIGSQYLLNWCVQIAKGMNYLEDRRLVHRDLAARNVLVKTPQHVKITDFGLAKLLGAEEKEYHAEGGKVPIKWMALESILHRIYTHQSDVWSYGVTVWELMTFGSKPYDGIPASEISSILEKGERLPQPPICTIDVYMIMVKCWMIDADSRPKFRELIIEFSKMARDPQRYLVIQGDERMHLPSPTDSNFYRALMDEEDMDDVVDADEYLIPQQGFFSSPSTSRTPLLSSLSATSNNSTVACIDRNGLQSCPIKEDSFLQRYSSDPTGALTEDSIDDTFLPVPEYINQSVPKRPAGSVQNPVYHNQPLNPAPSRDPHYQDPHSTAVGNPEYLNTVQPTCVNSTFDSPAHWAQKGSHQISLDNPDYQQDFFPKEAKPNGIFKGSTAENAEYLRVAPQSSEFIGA
UniProt P00533, 25-1210 C797S/L858R limits assumed: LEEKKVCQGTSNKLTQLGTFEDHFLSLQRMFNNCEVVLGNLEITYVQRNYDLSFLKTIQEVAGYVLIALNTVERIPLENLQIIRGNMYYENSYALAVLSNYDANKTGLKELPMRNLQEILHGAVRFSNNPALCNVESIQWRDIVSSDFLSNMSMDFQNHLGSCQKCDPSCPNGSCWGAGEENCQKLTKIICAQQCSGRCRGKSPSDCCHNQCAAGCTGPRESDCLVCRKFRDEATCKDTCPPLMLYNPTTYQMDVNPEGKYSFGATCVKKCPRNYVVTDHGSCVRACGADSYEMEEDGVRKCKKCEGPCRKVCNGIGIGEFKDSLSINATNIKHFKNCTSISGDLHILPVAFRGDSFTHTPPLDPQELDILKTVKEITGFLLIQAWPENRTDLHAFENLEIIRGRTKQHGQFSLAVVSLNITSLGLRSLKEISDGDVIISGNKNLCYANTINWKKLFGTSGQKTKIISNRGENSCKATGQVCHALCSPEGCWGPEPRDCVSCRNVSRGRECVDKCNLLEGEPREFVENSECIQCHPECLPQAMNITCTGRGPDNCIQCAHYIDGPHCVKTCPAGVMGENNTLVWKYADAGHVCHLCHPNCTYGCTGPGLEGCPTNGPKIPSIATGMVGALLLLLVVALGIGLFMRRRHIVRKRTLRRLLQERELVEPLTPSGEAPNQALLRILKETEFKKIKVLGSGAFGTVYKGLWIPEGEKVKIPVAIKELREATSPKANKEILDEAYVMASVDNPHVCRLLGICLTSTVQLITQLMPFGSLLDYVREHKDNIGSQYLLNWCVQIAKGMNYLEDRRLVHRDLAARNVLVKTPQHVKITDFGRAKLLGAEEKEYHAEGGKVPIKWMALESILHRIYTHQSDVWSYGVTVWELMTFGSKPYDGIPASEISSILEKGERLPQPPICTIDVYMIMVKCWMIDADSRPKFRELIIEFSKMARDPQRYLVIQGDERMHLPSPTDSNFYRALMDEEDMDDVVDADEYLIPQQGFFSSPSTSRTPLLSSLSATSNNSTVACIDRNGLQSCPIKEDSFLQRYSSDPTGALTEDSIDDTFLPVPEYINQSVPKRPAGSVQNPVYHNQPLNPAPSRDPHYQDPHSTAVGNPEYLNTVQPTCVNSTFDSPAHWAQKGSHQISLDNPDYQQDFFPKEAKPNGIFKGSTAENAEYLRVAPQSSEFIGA
UniProt P00533, 25-1210 T790M/C797S/L858R limits assumed: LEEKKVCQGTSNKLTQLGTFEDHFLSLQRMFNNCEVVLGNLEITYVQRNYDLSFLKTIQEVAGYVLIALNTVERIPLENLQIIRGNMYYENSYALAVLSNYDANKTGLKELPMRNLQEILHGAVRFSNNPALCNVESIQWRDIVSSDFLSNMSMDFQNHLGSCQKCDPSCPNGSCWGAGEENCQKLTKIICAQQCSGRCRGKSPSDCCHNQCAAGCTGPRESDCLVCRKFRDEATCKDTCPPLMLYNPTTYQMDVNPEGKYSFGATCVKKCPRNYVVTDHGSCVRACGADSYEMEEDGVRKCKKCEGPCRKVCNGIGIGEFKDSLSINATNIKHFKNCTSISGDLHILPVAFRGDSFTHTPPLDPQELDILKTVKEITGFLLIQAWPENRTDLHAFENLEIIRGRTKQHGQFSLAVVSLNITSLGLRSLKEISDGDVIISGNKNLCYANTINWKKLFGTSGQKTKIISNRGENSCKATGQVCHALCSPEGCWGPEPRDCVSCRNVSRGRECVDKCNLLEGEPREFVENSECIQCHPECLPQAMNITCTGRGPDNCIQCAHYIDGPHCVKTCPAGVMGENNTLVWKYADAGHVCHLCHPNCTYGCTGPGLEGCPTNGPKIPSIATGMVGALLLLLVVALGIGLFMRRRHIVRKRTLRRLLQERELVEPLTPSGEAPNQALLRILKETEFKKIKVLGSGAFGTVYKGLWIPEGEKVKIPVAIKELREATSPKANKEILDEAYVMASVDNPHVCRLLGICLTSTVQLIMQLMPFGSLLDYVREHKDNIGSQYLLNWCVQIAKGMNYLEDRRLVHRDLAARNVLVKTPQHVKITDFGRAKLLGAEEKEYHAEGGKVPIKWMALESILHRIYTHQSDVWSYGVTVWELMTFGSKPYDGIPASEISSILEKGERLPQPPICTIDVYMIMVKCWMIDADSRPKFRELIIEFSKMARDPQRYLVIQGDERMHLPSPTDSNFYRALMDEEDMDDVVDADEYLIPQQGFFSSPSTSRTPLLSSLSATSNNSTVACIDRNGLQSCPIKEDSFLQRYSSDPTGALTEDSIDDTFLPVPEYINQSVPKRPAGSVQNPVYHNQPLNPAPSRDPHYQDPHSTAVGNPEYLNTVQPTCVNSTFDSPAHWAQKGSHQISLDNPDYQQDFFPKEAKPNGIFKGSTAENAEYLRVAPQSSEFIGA
UniProt P00533, with tags, fused parts or gaps DEL746-750/C797S limits assumed: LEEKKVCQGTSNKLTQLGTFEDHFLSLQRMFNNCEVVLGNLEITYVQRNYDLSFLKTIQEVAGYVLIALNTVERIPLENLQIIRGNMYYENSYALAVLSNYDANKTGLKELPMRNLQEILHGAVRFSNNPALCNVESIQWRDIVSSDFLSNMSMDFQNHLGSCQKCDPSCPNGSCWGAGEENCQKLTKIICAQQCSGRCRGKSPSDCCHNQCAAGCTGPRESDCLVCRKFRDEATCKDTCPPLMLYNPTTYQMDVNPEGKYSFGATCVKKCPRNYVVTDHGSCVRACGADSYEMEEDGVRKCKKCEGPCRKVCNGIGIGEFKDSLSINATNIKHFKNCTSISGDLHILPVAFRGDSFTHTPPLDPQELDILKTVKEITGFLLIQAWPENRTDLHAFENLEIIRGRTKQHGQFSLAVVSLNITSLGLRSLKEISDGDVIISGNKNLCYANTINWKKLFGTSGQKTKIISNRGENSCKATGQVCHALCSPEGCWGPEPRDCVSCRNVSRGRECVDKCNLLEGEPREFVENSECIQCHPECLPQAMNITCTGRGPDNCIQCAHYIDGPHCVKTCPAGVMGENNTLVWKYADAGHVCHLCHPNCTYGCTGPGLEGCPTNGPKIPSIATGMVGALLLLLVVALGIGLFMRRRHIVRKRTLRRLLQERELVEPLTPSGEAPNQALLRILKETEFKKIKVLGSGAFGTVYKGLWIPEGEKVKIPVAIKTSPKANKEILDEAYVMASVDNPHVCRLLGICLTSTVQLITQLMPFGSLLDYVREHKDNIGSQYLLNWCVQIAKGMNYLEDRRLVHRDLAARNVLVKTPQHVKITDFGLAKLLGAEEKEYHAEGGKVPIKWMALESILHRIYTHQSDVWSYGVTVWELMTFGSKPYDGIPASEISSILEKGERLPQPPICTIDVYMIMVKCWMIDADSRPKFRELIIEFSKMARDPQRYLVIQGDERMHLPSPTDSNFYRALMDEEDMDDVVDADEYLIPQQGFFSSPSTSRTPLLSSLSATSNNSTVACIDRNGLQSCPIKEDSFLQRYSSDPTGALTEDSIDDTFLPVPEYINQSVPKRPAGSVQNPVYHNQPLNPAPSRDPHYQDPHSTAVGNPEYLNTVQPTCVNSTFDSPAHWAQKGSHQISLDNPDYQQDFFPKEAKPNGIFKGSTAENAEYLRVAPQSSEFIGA
UniProt P00533, with tags, fused parts or gaps DEL746-750/T790M/C797S limits assumed: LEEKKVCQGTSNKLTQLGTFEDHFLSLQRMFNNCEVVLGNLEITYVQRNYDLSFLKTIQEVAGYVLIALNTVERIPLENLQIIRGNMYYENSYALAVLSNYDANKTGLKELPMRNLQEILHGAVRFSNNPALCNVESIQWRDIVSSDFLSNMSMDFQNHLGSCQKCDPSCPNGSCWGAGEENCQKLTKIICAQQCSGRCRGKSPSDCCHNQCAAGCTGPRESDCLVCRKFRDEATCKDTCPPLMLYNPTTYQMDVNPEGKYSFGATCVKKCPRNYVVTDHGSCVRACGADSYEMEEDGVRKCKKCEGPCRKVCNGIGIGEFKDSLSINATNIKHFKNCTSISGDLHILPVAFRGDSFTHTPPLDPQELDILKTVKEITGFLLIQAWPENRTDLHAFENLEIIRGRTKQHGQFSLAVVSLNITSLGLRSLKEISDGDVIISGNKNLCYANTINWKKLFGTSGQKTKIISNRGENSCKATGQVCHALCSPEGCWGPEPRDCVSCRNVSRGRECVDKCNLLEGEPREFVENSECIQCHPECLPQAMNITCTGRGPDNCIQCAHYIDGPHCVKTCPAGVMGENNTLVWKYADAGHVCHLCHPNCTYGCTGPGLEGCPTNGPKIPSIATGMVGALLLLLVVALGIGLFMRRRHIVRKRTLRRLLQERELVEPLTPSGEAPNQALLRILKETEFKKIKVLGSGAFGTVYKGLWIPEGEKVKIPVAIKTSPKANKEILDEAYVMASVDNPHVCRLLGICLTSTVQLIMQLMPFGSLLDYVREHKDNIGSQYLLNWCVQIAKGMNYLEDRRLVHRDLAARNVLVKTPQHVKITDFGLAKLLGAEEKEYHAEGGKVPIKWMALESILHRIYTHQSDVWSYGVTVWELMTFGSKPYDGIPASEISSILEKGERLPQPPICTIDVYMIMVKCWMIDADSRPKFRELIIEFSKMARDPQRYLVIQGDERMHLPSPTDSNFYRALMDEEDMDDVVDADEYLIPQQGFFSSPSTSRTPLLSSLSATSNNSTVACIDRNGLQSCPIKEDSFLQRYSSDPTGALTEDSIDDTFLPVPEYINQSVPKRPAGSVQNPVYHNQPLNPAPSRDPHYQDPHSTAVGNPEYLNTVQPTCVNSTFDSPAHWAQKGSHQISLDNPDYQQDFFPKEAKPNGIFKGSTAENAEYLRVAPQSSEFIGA

IC50 [1, 3] [nM]	IC50 (EGFR WT; [4]) [nM]	IC50 (EGFR WT; [5]) [nM]	IC50 (EGFR LRCS (L858R/C797S); [6]) [nM]	IC50 (EGFR LRCS (L858R/C797S); [7]) [nM]	IC50 (EGFR D19CS (del19/C797S); [8]) [nM]	IC50 (EGFR D19CS (del19/C797S); [9]) [nM]	IC50 [2, 10] [nM]	IC50 [2, 11] [nM]	IC50 [1, 12] [nM]	IC50 [1, 13] [nM]	IC50 (EGFR WT; [14]) [nM]	IC50 (EGFR WT; read-out: EGFR WT IC50, ATP Km) [nM]	IC50 (EGFR LRCS (L858R/C797S); [15]) [nM]	IC50 (EGFR LRCS (L858R/C797S); [16]) [nM]	IC50 (EGFR D19CS (del19/C797S); [17]) [nM]	IC50 (EGFR D19CS (del19/C797S); [18]) [nM]	IC50 [2, 19] [nM]	IC50 [2, 20] [nM]	SMILES
< 10	> 1000	10 to 100	10 to 100	< 10	10 to 100	< 10	< 10	< 10	–	–	–	–	–	–	–	–	–	–	Cc1nn(C)c2c1-c1nccc(n1)Nc1cc(c(-c3cccc(C(C)(C)O)n3)cn1)NCC[C@H](C)O2
< 10	> 1000	10 to 100	10 to 100	< 10	10 to 100	< 10	< 10	< 10	–	–	–	–	–	–	–	–	–	–	Cc1nn(C)c2c1-c1nccc(n1)Nc1cc(c(-c3ncc(CN4CCC(O)CC4)cc3F)cn1)NCC[C@H](C)O2
–	–	–	–	–	–	–	–	–	< 10	< 10	100 to 1000	< 10	< 10	< 10	< 10	< 10	< 10	< 10	C[C@H]1CCOc2c(cnn2C)-c2nccc(n2)Nc2cc(c(-c3ccc(OC4CCN(C)CC4)cn3)cn2)N1
< 10	> 1000	10 to 100	100 to 1000	< 10	10 to 100	10 to 100	10 to 100	< 10	–	–	–	–	–	–	–	–	–	–	Cc1nn(C)c2c1-c1nccc(n1)Nc1cc(c(-c3ncc(CN4CCC(F)(F)CC4)cc3F)cn1)NCC[C@H](C)O2
–	–	–	–	–	–	–	–	–	< 10	< 10	> 1000	10 to 100	100 to 1000	< 10	10 to 100	< 10	< 10	< 10	Cc1nn(C)c2c1-c1nccc(n1)Nc1cc(c(-c3ccc(OC(F)F)cn3)cn1)NCC(C)(C)CO2
–	–	–	–	–	–	–	–	–	< 10	< 10	> 1000	< 10	10 to 100	< 10	< 10	< 10	< 10	< 10	Cc1nn(C)c2c1-c1nccc(n1)Nc1cc(c(-c3ncc(CN4CC5(COC5)C4)cc3F)cn1)N[C@@H](C)CCO2
–	–	–	–	–	–	–	–	–	< 10	< 10	> 1000	10 to 100	100 to 1000	< 10	10 to 100	< 10	< 10	< 10	Cc1nn(C)c2c1-c1nccc(n1)Nc1cc(c(-c3ncc(C(C)(C)F)cn3)cn1)NCC[C@H](C)O2
< 10	> 1000	< 10	< 10	< 10	< 10	< 10	< 10	< 10	–	–	–	–	–	–	–	–	–	–	Cc1nn(C)c2c1-c1nccc(n1)Nc1cc(c(-c3cnc(CN4CC5(COC5)C4)cn3)cn1)N[C@@H](C)CCO2
< 10	> 1000	10 to 100	10 to 100	< 10	10 to 100	< 10	< 10	< 10	–	–	–	–	–	–	–	–	–	–	Cc1nn(C)c2c1-c1nccc(n1)Nc1cc(c(-c3ncc(CN4CC5(COC5)C4)cc3F)cn1)NCC[C@H](C)O2
–	–	–	–	–	–	–	–	–	< 10	< 10	> 1000	100 to 1000	100 to 1000	10 to 100	100 to 1000	10 to 100	< 10	< 10	Cn1ncc2c1OCC1(CNc3cc(ncc3-c3ccn(C(F)F)n3)Nc3ccnc-2n3)COC1
–	–	–	–	–	–	–	–	–	< 10	< 10	> 1000	10 to 100	> 1000	10 to 100	100 to 1000	10 to 100	10 to 100	< 10	C[C@H]1CCOc2c(cnn2C)-c2nccc(n2)Nc2cc(c(-c3ccc(OC4CCN(CC(F)(F)F)CC4)cn3)cn2)N1
–	–	–	–	–	–	–	–	–	< 10	< 10	> 1000	10 to 100	< 10	< 10	< 10	< 10	< 10	< 10	Cc1nn(C)c2c1-c1nccc(n1)Nc1cc(c(-c3ccc(N4CCN(C)CC4)cn3)cn1)N[C@@H](C)CCO2
< 10	> 1000	10 to 100	> 1000	< 10	100 to 1000	< 10	10 to 100	< 10	–	–	–	–	–	–	–	–	–	–	Cc1nn(C)c2c1-c1nccc(n1)Nc1cc(c(-c3ncc(S(C)(=O)=O)cn3)cn1)N[C@@H](C)CCO2
–	–	–	–	–	–	–	–	–	< 10	< 10	> 1000	< 10	10 to 100	< 10	< 10	< 10	< 10	< 10	C[C@H]1CCOc2c(cnn2C)-c2nccc(n2)Nc2cc(c(-c3ncc(CN4CC(CC(C)(F)F)C4)cc3F)cn2)N1
–	–	–	–	–	–	–	–	–	< 10	< 10	> 1000	10 to 100	100 to 1000	< 10	100 to 1000	10 to 100	< 10	< 10	CC1CNc2cc(ncc2-c2ccn(C(F)F)n2)Nc2ccnc(n2)-c2cnn(C)c2OC1 (stereo not shown)
–	–	–	–	–	–	–	–	–	< 10	< 10	> 1000	< 10	10 to 100	< 10	< 10	< 10	< 10	< 10	CN1CCN(Cc2cnc(-c3cnc4cc3NCC(C)(C)COc3c(cnn3C)-c3nccc(n3)N4)c(F)c2)CC1
–	–	–	–	–	–	–	–	–	< 10	< 10	> 1000	10 to 100	10 to 100	< 10	< 10	< 10	< 10	< 10	Cc1nn(C)c2c1-c1nccc(n1)Nc1cc(c(-c3ncc(CN4CC(CC(F)F)C4)cc3F)cn1)N[C@@H](C)CCO2
–	–	–	–	–	–	–	–	–	100 to 1000	10 to 100	> 1000	> 1000	> 1000	100 to 1000	> 1000	> 1000	100 to 1000	10 to 100	COc1cc(F)cnc1-c1cnc2cc1N[C@@H](C)CCOc1c(cnn1C)-c1nccc(n1)N2
–	–	–	–	–	–	–	–	–	10 to 100	< 10	> 1000	> 1000	> 1000	10 to 100	> 1000	10 to 100	100 to 1000	< 10	Cc1nn(C)c2c1-c1nccc(n1)Nc1cc(c(-c3ccn(C(F)F)n3)cn1)N[C@@H](C)CCO2
–	–	–	–	–	–	–	–	–	< 10	< 10	> 1000	10 to 100	100 to 1000	< 10	10 to 100	< 10	< 10	< 10	C[C@H]1CCNc2cc(ncc2-c2cc(OC(F)F)ccn2)Nc2ccnc(n2)-c2cnn(C)c2O1
–	–	–	–	–	–	–	–	–	< 10	< 10	> 1000	10 to 100	100 to 1000	< 10	10 to 100	< 10	< 10	< 10	C[C@H]1CCOc2c(cnn2C)-c2nccc(n2)Nc2cc(c(-c3cnc(OC4CCOC4)cn3)cn2)N1 (stereo partly shown)
< 10	> 1000	10 to 100	10 to 100	< 10	10 to 100	< 10	< 10	< 10	–	–	–	–	–	–	–	–	–	–	Cc1nn(C)c2c1-c1nccc(n1)Nc1cc(c(-c3ncc(CN4C[C@@H](CS(C)(=O)=O)[C@H]4C)cc3F)cn1)N[C@@H](C)CCO2
< 10	> 1000	10 to 100	10 to 100	< 10	10 to 100	10 to 100	< 10	< 10	–	–	–	–	–	–	–	–	–	–	Cc1nn(C)c2c1-c1nccc(n1)Nc1cc(c(-c3ncc(CN4C[C@@H](CS(C)(=O)=O)[C@@H]4C)cc3F)cn1)N[C@@H](C)CCO2
–	–	–	–	–	–	–	–	–	< 10	< 10	> 1000	> 1000	> 1000	100 to 1000	100 to 1000	10 to 100	10 to 100	< 10	Cc1nn(C)c2c1-c1nccc(n1)Nc1cc(c(-c3ccc(C(F)(F)F)cn3)cn1)N[C@@H](C)CCO2
